Test results from ChEMBL document CHEMBL1134417, “Hypoxia-selective antitumor agents. 16. Nitroarylmethyl quaternary salts as bioreductive prodrugs of the alkylating agent mechlorethamine” (2001).

Tests used:
EMT6 = experiment: Ability to reduce cell density of EMT6 cells to 50% after 4 hr of exposure to air
[1] = Ability to reduce cell density of UV4 cells to 50% after 4 hr of exposure to air
[2] = Ability to reduce cell density of AA8 cells to 50% after 4 hr of exposure to air; settings: cho-aa8
SK-OV-3 = experiment: Ability to reduce cell density of SKOV3 cells to 50% after 4 hr of exposure to air

CN(CCCl)CCCl
IC50 (EMT6): 150 nM
IC50 [1]: 29 nM
IC50 [2]: 2500 nM
IC50 (SK-OV-3): 1090 nM
